According to PubChem BioAssay AID493180 (Broad Institute, 2011):
The list shows a part of the results, in another mix than the full data. Calls of active or inactive are those of the source.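 The calls were made as follows: active = fitted curve reaching 40% activation at or below the top valid tested dose; inactive = the rest, or activity counter to the expected direction.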

Test: HIF pathway activators in reporter cells, dose response, cell-based, U2OS HRE-luciferase, luminescence, dry powder, set 3 (AID 493180)
Conditions: at 38 µM (top of the series)
How it was run: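 material = U2OS 3xHRE-luciferase reporter cells | compound = 8-point series in 3-fold steps, 7.5 mM top stock | detection = Steady-Glo luminescence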

## O=c1[nH]c2ccccc2n1C1CCN(Cc2ccc(O)c3ncccc23)CC1
  activation: inactive: 2.17%
